The values that follow come from PubChem BioAssay AID456 (Sanford-Burnham Center for Chemical Genomics, 2006).

Only a part is listed here, and it is no random draw. Results with a measured potency or affinity are listed apart. Calls of active or inactive are those of the source.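 Rule for the calls: active = top tenth filtered wells with inhibition above zero that passed visual or statistical confirmation; inactive = the rest, including hits rejected on review.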

The assay in a line: inhibitors of TNFa-induced VCAM-1 surface display, imaging, high-content imaging, pooled HUVEC, TNFa stimulus (AID 456). Particulars: HUVEC TNFa-induced VCAM-1 surface expression, immunofluorescence imaging.
With `Fc1ccccc1NC1CCN(Cc2ccccc2)CC1`, the result was inactive.
